{"source": "paper PMC12376128", "about": "“In vitro and In Vivo Drug Metabolism Analysis of BPI-460372 - A Covalent TEAD1/3/4 Inhibitor” (Current Drug Metabolism, 2025)", "experiment_in_all_cases": "Metabolic stability in hepatocytes", "key": {"rat hepatocytes": {"test_system": "rat hepatocytes", "procedure": "(§1) After mixing, 20 μL of cell suspension was serially transferred into 200 μL of cold acetonitrile containing IS at the time points of 0, 5, 15, 30, 60, and 120 min, respectively.\n(§2) The metabolic stability was assessed by measuring the depletion of substrate. The half-life (t1/2), intrinsic clearance (CLint, in virto, µL·min^-1·million cells^-1), whole liver intrinsic clearance (CLint, in vivo, mL·min-1·kg^-1), and in vivo hepatic clearance (CLH, mL·min-1·kg^-1) were calculated following a reported method. In the calculation of CLH, the fraction drug unbound (Fub) was set as 1. The hepatic blood flow, liver weight, and hepatocellularity of five species were used for the calculation of CLint, in vivo [13, 14]. The hepatic extraction ratio (Eh) means the ratio of CLH to hepatic blood flow."}, "monkey hepatocytes": {"test_system": "monkey hepatocytes", "procedure": "as §1, §2"}, "dog hepatocytes": {"test_system": "dog hepatocytes", "procedure": "as §1, §2"}, "mouse hepatocytes": {"test_system": "mouse hepatocytes", "procedure": "as §1, §2"}, "human hepatocytes": {"test_system": "human hepatocytes", "procedure": "as §1, §2"}}, "data": [{"molecule": "C[C@]12CC[C@H]3[C@@H](CCC4=CC(=O)CC[C@@]43C)[C@@H]1CC[C@@H]2O", "note": "[Testosterone, testosterone]", "values": [{"measurement": "Eh", "setting": "rat hepatocytes", "result": 0.809}, {"measurement": "Eh", "setting": "monkey hepatocytes", "result": 0.832}, {"measurement": "Eh", "setting": "dog hepatocytes", "result": 0.916}, {"measurement": "Eh", "setting": "mouse hepatocytes", "result": 0.860}, {"measurement": "Eh", "setting": "human hepatocytes", "result": 0.901}]}]}
